“Also recorded” adds a separate entry of the source.
System: HepG2 cells
Experiment: Transmembrane transfer of molecular conjugates with X-tremeGENEsiRNA reagent, laser confocal / fluorescent microscopy
Conditions: for positioning in cells (penetration through the cell membrane / transfer into cells): 4 nmol, X-tremeGENEsiRNA reagent, 6 h, laser confocal microscope, FIG. 5 and FIG. 6

Row | Substance | positioning in cells (penetration through the cell membrane / transfer into cells) | transfer efficiency (cells counted by phase contrast vs fluorescent microscope, FIG. 7C)
1 | 4-bromo-3-oxo-tert-Butyl acetate-5-(3-((((1-phenyl carbamoylpiperidine)-4-methyl)-N-propargyl amine)phenyl)thiophene-2-methyl formate directly tagged with FITC | cannot penetrate through the cell membrane into cells | 
2 | 4-bromo-3-oxoacetic acid-5-(3-(((1-(4-fluorescein 19 polyA) 12-alkyl acetamidophenyl)-1H-1,2,3-triazole-4-methylene)(1-phenylcarbamoylpiperidine)-4-methyl)amino)phenyl)thiophene-2-formic acid [molecular conjugate 1] | penetrate through the cell membrane successfully and be transferred into cells; also recorded: transferred into cells, with most of them into the cytoplasm and a few of them into the cell nucleus | over 80%
